Experimental findings from patent US5928932A, “Isolated gene encoding an enzyme with UDP-glucose pyrophosphorylase and phosphoglucomutase activities from Cyclotella cryptica” (priority 1996, dated 1999) are described below.

Data set [1] concerns O=P(O)(O)O[C@H]1O[C@H](CO)[C@@H](O)[C@H](O)[C@H]1O. The data set is described as follows: purified protein, by the assay type. To be noted: other: highly purified enzyme, double reciprocal plot, FIG. 3A, pH 7.8.
Data set [2] has as its system O=P(O)(O)OC[C@H]1OC(O)[C@H](O)[C@@H](O)[C@@H]1O. The data set is described as follows: purified protein, by the assay type. To be noted: other: purified enzyme; 10 μM glucose-1,6-diphosphate included; FIG. 3B; pH 7.8; 30.0 °C.

On to “UGPase portion of the UGPase/PGMase enzyme (Cyclotella cryptica)”, for which the Km in data set [1] (30.0 °C) stood at 81 µM.

For the substance “purified UGPase/PGMase protein (Cyclotella cryptica)”, the Km in data set [2] amounted to 125 µM.

For the substance “PGMase portion of the UGPase/PGMase enzyme (Cyclotella cryptica)”, in data set [1] (25.0 °C), the Km is 87 µM.

The Km is the concentration of substrate that gives half-maximal velocity.
